The values that follow come from US9296748B2, “Pyridinones” (Boehringer Ingelheim International GmbH, priority 2013, dated 2016).

This experiment concerns the target BRD4-BD1 (Homo sapiens (Human), UniProt O60885). The experiment is described as follows: BRD4-H4 Tetraacetylated Peptide Inhibition AlphaScreen. The conditions noted are these: read-out: BRD4-BD1 IC50; GST-BRD4-BD1 (aa 44-168), biotinylated Acetyl-Histone H4 peptide. The format is binding. On the procedure: Compounds are diluted in serial dilution 1:5 in assay buffer from 10 mM stock in DMSO (100 μM start concentration) in white OptiPlate-384 (PerkinElmer). […] Subsequently, 6 μl of premixed AlphaLISA Glutathione Acceptor Beads and AlphaScreen Streptavidin Donor Beads from PerkinElmer (in assay buffer at a concentration of 10 μg/ml each) are added and the samples are incubated for 30 min at RT in the dark (shaking 300 rpm). Afterwards, the signal is measured in a PerkinElmer Envision HTS Multilabel Reader using the AlphaScreen protocol from PerkinElmer. […] Negative control values are entered as low basis value when using the software GraphPad Prism for calculations. Furthermore, a positive control (probe molecule JQ1+ with protein/peptide mix) is pipetted. Determination of IC50 values are carried out using GraphPad Prism 3.03 software (or updates thereof).
In general terms: Alpha assays give light when donor and acceptor beads are brought close together.

The IC50 is the concentration at which inhibition is half-maximal. Consider `Cc1cc(-c2nc3ccc(OC4CCOC4)nc3n2C(C)c2ccccn2)cn(C)c1=O` (stereo not shown), for which the IC50 was found to be 0.2 µM.
